# AlphaSeq binding of Ab-14 light chain variants to a spike HR2 peptide

Data: MIT Lincoln Laboratory AlphaSeq set, Engelhart et al. 2022, doi:10.1038/s41597-022-01779-4, as distributed in FLAb.

Target peptide (SARS-CoV-2 spike, HR2 region): PDVDLGDISGINAS

The variants keep the heavy chain, the linker and the frameworks of Ab-14 (scFv order VH, three GGGGS repeats, VL).
VH: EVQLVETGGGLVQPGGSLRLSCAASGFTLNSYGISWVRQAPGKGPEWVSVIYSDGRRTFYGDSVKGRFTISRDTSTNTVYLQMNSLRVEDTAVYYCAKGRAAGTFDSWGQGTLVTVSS
VL: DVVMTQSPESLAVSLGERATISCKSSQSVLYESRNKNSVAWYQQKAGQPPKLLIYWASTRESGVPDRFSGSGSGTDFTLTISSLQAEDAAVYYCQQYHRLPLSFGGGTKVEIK

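The parent was found by panning a naive human phage display library on the peptide. Library AAYL50 holds single substitutions and randomly drawn double and triple substitutions in the CDRs. The scFvs were displayed on barcoded MATa yeast, the peptide on MATalpha yeast. The frequency of each diploid, read from paired DNA barcodes, reflects how well the two displayed proteins bind. Scores were corrected for input abundance and mapped to Kd with protein pairs of known affinity run in the same pool. There are three technical replicates.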

Changes read parent residue, position, new residue, counted from the first residue of the VL shown. Affinities are written as log10 Kd with Kd in nM; a lower number is a better binder. A mean of the replicates is given; it leaves out those without a signal. A pair that was not seen in any replicate is written "nd"; this usually means weak binding, but a binder can also be missed. As a blank, each scFv also met three strains without target: over library AAYL50, 18% of these pairings were detected, typically at 4.19 and seldom below 2.99. For each scFv, signals with the empty controls are counted beside the result. In this assay the parent's reference entry averaged 0.65; its copy inside this library read 1.68.

changes	log10 Kd (nM), mean	detected	empty controls
L30Q+T59G+S103I	3.21	3/3	1/9
Q27K+Y31H+L100M	1.70	3/3	3/9
S25L+H98G+S103C	0.31	3/3	6/9
Q27A+N35I+P101D	1.83	3/3	2/9
K24L+L30D+Q95G	1.70	3/3	5/9
N37V+A57P+S62D	5.58	1/3	0/9
S26I+E61S+P101M	1.53	3/3	3/9
S38Q+E61R+R99I	nd	0/3	0/9
S26K+Q27L+E61Y	1.38	3/3	4/9
S26V+E32Q+S33C	nd	0/3	1/9
S25R+S28E+H98S	0.57	3/3	3/9
S26K+S28Y+L30E	1.18	3/3	1/9
S25Y+Q95W	4.37	1/3	1/9
E32M+R60H+L100N	nd	0/3	2/9
Y31Q+A40T	2.54	1/3	0/9
S33E+W56E+A57I	-0.16	3/3	3/9
S38Y+A57Q+Q96F	4.57	3/3	7/9
S25A+K36H+L100R	nd	0/3	0/9
L30M+Y31V+S38T	3.14	3/3	3/9
L30E+A57L+S58G	4.61	1/3	3/9
S28V+K36C+R60C	4.78	2/3	1/9
V29I+S33N	0.67	3/3	1/9
Y31F+R34I+Q95V	0.52	3/3	1/9
Y31L+T59H	2.22	2/3	0/9
L30H+A57S+H98W	2.09	3/3	5/9
E32P+S58W+T59K	3.08	3/3	3/9
S26K+R34I+A57N	nd	0/3	0/9
K24P+K36M+S103A	nd	0/3	0/9
S28L+V29K+R60Q	nd	0/3	0/9
W56I+E61L+S62N	4.03	1/3	2/9
Y31K+T59C+P101I	3.43	3/3	4/9
Y31L+A40C+S62C	3.98	3/3	2/9
S28G+V29G+S33R	1.63	3/3	1/9
S26C+S33R+R60S	nd	0/3	1/9
V29W+E61Y+S62V	0.54	3/3	3/9
S26I+R60F+Q95K	nd	0/3	1/9
S33G+S58E+Q95N	4.24	1/3	3/9
V39C+Y97C+P101C	nd	0/3	0/9
R34A+V39K+L102E	nd	0/3	0/9
K36D+Q95G	3.22	3/3	1/9
K24P+V29C+V39G	nd	0/3	0/9
K36V+W56D+R60A	0.08	3/3	4/9
S26A+Y31A+L102K	2.64	1/3	1/9
S38L+A40L+R99G	4.89	1/3	1/9
S25N+E61V+Q95G	2.75	3/3	1/9
A40E+R99Q+P101D	3.60	1/3	0/9
V29H+L30C+K36D	2.35	3/3	2/9
T59L+R60F+Q96P	4.54	2/3	3/9
S28T+N35R	2.78	2/3	0/9
K24T+N35D+Y97H	3.32	1/3	1/9
Q27G+V39I+S62P	0.94	3/3	4/9
R60P+R99N+S103R	3.04	1/3	0/9
S25G+A57R+L100D	nd	0/3	1/9

Excerpt, the final 5 entries:

changes	log10 Kd (nM), mean	detected	empty controls
S28T+N35R	2.78	2/3	0/9
K24T+N35D+Y97H	3.32	1/3	1/9
Q27G+V39I+S62P	0.94	3/3	4/9
R60P+R99N+S103R	3.04	1/3	0/9
S25G+A57R+L100D	nd	0/3	1/9